Test results: patent US20250230193A1, “CYCLIC COMPOUND HAVING SELECTIVE KRAS INHIBITORY EFFECT ON HRAS AND NRAS” (CHUGAI SEIYAKU KABUSHIKI KAISHA, priority 2022, published 2025)

The chains behind the UniProt entries cited, without tags or fusion partners.
UniProt P01112, whole entry: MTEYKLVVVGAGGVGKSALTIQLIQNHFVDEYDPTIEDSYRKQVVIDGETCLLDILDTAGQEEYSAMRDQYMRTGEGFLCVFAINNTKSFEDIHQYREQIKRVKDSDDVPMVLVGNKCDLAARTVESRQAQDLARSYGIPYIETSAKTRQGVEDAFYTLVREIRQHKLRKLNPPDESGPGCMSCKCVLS
UniProt P01116, whole entry: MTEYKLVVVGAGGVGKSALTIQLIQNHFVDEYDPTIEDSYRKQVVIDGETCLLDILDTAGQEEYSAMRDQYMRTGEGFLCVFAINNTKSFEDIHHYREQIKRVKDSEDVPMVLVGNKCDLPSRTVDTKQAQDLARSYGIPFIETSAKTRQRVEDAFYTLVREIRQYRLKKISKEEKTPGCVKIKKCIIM
UniProt P01111, whole entry: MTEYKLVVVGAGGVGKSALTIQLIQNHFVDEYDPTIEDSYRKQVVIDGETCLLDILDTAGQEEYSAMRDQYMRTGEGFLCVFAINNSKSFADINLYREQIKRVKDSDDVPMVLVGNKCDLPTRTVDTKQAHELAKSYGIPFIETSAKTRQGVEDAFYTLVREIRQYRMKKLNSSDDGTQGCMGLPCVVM

Experiments:
[1] = system: human lung cancer strain NCI-H441; assay: NCI-H441 cell proliferation inhibitory activity (CellTiter-Glo, 4 days); type: cell-based; conditions: read-out: NCI-H441 IC50, NCI-H441 cells
[2] = biological target: GDP-bound HRAS wild-type protein (Homo sapiens, UniProt P01112); assay: Binding to HRAS by surface plasmon resonance (SPR), Single Cycle Kinetics; conditions: KD ratio class
[3] = biological target: GDP-bound KRAS wild-type protein (Homo sapiens, UniProt P01116); assay: Binding to KRAS by surface plasmon resonance (SPR), Single Cycle Kinetics; conditions: read-out: KRAS KD
[4] = biological target: GDP-bound NRAS wild-type protein (Homo sapiens, UniProt P01111); assay: Binding to NRAS by surface plasmon resonance (SPR), Single Cycle Kinetics; conditions: KD ratio class

Compound	IC50 [1] [µM]	Kd [3] [µM]	HRAS/KRAS (ratio of KD value for GDP-bound HRAS wild-type protein to KD value for KRAS) [2]	NRAS/KRAS (ratio of KD value for GDP-bound NRAS wild-type protein to KD value for KRAS) [4]
CCO[C@@H]1C[C@H]2C(=O)NC3(CCC3)C(=O)N(C)[C@@H](C3CCCC3)C(=O)N(C)[C@H](C)CC(=O)N(C)[C@@H](CC3CCCC3)C(=O)N[C@@H]([C@@H](C)CC)C(=O)N(C)CC(=O)N(C)[C@H]3C/C=C\CCN(C3=O)[C@@H](Cc3ccc(F)cc3C)C(=O)N(C)CC(=O)N[C@@H](CCc3cc(F)c(C(F)(F)F)c(F)c3)C(=O)N2C1	0.198			
CCO[C@@H]1C[C@H]2C(=O)NC3(CCC3)C(=O)N(C)[C@@H](C3CCCC3)C(=O)N(C)[C@H](C(=O)N(C)C)CC(=O)N(C)[C@@H](CSC)C(=O)N[C@@H]([C@@H](C)CC)C(=O)N(C)CC(=O)N(C)[C@H]3C/C=C\CCN(C3=O)[C@@H](CC3CCC(F)(F)CC3)C(=O)N(C)CC(=O)N[C@@H](CCc3cc(F)c(C(F)(F)F)c(F)c3)C(=O)N2C1			A (a compound having 10 or more and less than 20 is denoted as A)	A (a compound having 10 or more and less than 20 is denoted as A)
CC[C@H](C)[C@@H]1NC(=O)[C@H](CC2CC2)N(C)C(=O)C[C@@H](C(=O)N2CCCC2)N(C)C(=O)[C@H](C2CCCC2)N(C)C(=O)C2(CCC2)NC(=O)[C@@H]2CC(F)(F)CN2C(=O)[C@H](CCc2cc(F)c(C(F)(F)F)c(F)c2)NC(=O)CN(C)C(=O)[C@H](Cc2ccc(C(F)(F)F)cc2)N2CC/C=C\C[C@@H](C2=O)N(C)C(=O)CN(C)C1=O			A (a compound having 10 or more and less than 20 is denoted as A)	AA (a compound having 20 or more is denoted as AA)
CCO[C@@H]1C[C@H]2C(=O)NC3(CCC3)C(=O)N(C)[C@@H](C3CCCC3)C(=O)N(C)[C@H](C(=O)N3CCCC3)CC(=O)N(C)[C@@H](CC(C)C)C(=O)N[C@@H]([C@@H](C)CC)C(=O)N(C)CC(=O)N(C)[C@H]3C/C=C\CCN(C3=O)[C@@H](Cc3ccc(C(F)(F)F)cc3)C(=O)N(C)CC(=O)N[C@@H](CCc3cc(F)c(C(F)(F)F)c(F)c3)C(=O)N2C1			A (a compound having 10 or more and less than 20 is denoted as A)	AA (a compound having 20 or more is denoted as AA)

Further lines, with some results ahead:

IC50 [1] [µM]	Kd [3] [µM]	Compound	HRAS/KRAS (ratio of KD value for GDP-bound HRAS wild-type protein to KD value for KRAS) [2]	NRAS/KRAS (ratio of KD value for GDP-bound NRAS wild-type protein to KD value for KRAS) [4]
0.0443	0.0004	CCCCCC[C@H]1C(=O)N[C@@H]([C@@H](C)CC)C(=O)N(C)CC(=O)N(C)[C@H]2C/C=C\CCN(C2=O)[C@@H](Cc2ccc(C(F)(F)F)cc2)C(=O)N(C)CC(=O)N[C@@H](CCc2ccc(C(F)(F)F)c(OC)c2)C(=O)N2C[C@H](OCC)C[C@H]2C(=O)NC2(CCC2)C(=O)N(C)[C@@H](C(CC)CC)C(=O)N(C)[C@H](C(=O)N(C)C)CC(=O)N1C	A (a compound having 10 or more and less than 20 is denoted as A)	AA (a compound having 20 or more is denoted as AA)
0.0234	0.00024	CCO[C@@H]1C[C@H]2C(=O)NC3(CCC3)C(=O)N(C)[C@@H](C(CC)CC)C(=O)N(C)[C@H](C(=O)N(C)C)CC(=O)N(C)[C@@H](CC3CCCC3)C(=O)N[C@@H]([C@@H](C)CC)C(=O)N(C)CC(=O)N(C)[C@H]3C/C=C\CCN(C3=O)[C@@H](Cc3ccc(C(F)(F)F)cc3)C(=O)N(C)CC(=O)N[C@@H](CCc3cc(F)c(C(F)(F)F)c(F)c3)C(=O)N2C1	A (a compound having 10 or more and less than 20 is denoted as A)	AA (a compound having 20 or more is denoted as AA)
0.106		CCO[C@@H]1C[C@H]2C(=O)NC3(CC(C)(C)C3)C(=O)N(C)[C@@H](C(CC)CC)C(=O)N(C)[C@H](C(C)C)CC(=O)N(C)[C@@H](CC)C(=O)N[C@@H]([C@@H](C)CC)C(=O)N(C)CC(=O)N(C)[C@H]3C/C=C\CCN(C3=O)[C@@H](Cc3ccc(C(F)(F)F)cc3)C(=O)N(C)CC(=O)N[C@@H](CCc3cc(F)c(C(F)(F)F)c(F)c3)C(=O)N2C1		
0.0274		CCO[C@@H]1C[C@H]2C(=O)NC3(CC(C)(C)C3)C(=O)N(C)[C@@H](C3CCCC3)C(=O)N(C)[C@H](C3CCCCC3)CC(=O)N(C)[C@@H](COC)C(=O)N[C@@H]([C@@H](C)CC)C(=O)N(C)CC(=O)N(C)[C@H]3C/C=C\CCN(C3=O)[C@@H](Cc3ccc(C(F)(F)F)cc3)C(=O)N(C)CC(=O)N[C@@H](CCc3cc(F)c(C(F)(F)F)c(F)c3)C(=O)N2C1		
0.0138		CCO[C@@H]1C[C@H]2C(=O)NC3(CCC3)C(=O)N(C)[C@@H](C3CCCC3)C(=O)N(C)[C@H](C(C)C)CC(=O)N(C)[C@@H](CC)C(=O)N[C@@H]([C@@H](C)CC)C(=O)N(C)CC(=O)N(C)[C@H]3C/C=C\CCN(C3=O)[C@@H](Cc3ccc(C(F)(F)F)cc3)C(=O)N(C)CC(=O)N[C@@H](CCc3ccc(C(F)(F)F)c(OC)c3)C(=O)N2C1		
0.0457		CCO[C@@H]1C[C@H]2C(=O)NC3(CCC3)C(=O)N(C)[C@@H](C(CC)CC)C(=O)N(C)[C@H](C3CCCCC3)CC(=O)N(C)[C@@H](COC)C(=O)N[C@@H]([C@@H](C)CC)C(=O)N(C)CC(=O)N(C)[C@H]3C/C=C\CCN(C3=O)[C@@H](Cc3ccc(C(F)(F)F)cc3)C(=O)N(C)CC(=O)N[C@@H](CCc3cc(F)c(C(F)(F)F)c(F)c3)C(=O)N2C1		
